ChEMBL document CHEMBL4033781 (J Med Chem, 2018)
Activity calls are given as the source filed them.

The chains behind the UniProt entries cited, without tags or fusion partners.
UniProt Q64541, whole entry: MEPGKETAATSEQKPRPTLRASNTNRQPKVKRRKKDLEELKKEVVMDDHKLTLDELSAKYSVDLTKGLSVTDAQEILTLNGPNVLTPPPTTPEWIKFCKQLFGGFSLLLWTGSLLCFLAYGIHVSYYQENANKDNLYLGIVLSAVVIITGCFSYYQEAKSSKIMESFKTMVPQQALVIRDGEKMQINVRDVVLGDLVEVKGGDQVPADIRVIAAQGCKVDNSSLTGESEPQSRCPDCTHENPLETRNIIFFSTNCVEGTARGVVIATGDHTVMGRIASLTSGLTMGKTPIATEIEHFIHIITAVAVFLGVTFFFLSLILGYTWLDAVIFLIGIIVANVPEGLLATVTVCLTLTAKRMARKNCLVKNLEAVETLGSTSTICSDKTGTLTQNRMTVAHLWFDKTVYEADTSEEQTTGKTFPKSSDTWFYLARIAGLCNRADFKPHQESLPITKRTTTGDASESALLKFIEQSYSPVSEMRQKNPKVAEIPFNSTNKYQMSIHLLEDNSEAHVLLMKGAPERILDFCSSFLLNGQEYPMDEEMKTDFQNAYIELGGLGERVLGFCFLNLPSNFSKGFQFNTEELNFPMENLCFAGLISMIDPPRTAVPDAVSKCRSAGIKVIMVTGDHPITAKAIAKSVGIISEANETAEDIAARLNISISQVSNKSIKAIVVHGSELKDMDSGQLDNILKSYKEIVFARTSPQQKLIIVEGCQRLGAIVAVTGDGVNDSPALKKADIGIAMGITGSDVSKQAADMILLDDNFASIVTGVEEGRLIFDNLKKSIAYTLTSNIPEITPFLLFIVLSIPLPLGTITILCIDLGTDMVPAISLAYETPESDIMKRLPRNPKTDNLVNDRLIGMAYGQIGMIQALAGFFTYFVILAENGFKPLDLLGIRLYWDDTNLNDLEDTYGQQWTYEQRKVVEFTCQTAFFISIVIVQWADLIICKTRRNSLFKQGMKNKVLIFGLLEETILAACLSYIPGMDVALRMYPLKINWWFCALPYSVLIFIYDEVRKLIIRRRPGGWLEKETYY

Experiments:
[1] = molecular target: Sodium/potassium-transporting ATPase subunit alpha-4 (Rattus norvegicus) (UniProt Q64541); conditions: Long Evans, 10^-8 M
[2] = molecular target: Sodium/potassium-transporting ATPase subunit alpha-4 (Rattus norvegicus) (UniProt Q64541); test: Inhibition of Na+/K+-ATPase alpha4 in Long Evans rat cauda epididymis sperm assessed as reduction in sperm motility at 10^-8 M preincubated for 1 hr followed by compound washout measured up to 2 hrs by SYTO staining based microscopic method
Procedure, shortened: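 Rat cauda epididymal sperm in modified Tyrode's medium were treated with or without compound. Motility was measured by SYTO 21/CASA before and after three washes in modified Tyrode's medium, at times up to 2 h. Values are mean ± SEM of three determinations.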

[3] = molecular target: Sodium/potassium-transporting ATPase subunit alpha-4 (Rattus norvegicus) (UniProt Q64541); test: Inhibition of Na+/K+-ATPase alpha4 in Long Evans rat cauda epididymis sperm assessed as reduction in total sperm motility at 10^-12 to 10^-4 M after 1 hr by SYTO staining based microscopic method
[4] = molecular target: Sodium/potassium-transporting ATPase subunit alpha-4 (Rattus norvegicus) (UniProt Q64541); test: Inhibition of Na+/K+-ATPase alpha4 in Long Evans rat cauda epididymis sperm assessed as reduction in sperm straight line velocity at 10^-12 to 10^-4 M after 1 hr by SYTO staining based microscopic method
[5] = molecular target: Sodium/potassium-transporting ATPase subunit alpha-4 (Rattus norvegicus) (UniProt Q64541); conditions: Long Evans, 10^-8 M; remark: listed apart in the source
[6] = molecular target: Sodium/potassium-transporting ATPase subunit alpha-4 (Rattus norvegicus) (UniProt Q64541); test: Inhibition of Na+/K+-ATPase alpha4 in Long Evans rat cauda epididymis sperm assessed as reduction in sperm progressive motility at 10^-12 to 10^-4 M after 1 hr by SYTO staining based microscopic method
[7] = molecular target: Sodium/potassium-transporting ATPase subunit alpha-4 (Rattus norvegicus) (UniProt Q64541); test: Inhibition of Na+/K+-ATPase alpha4 in Long Evans rat cauda epididymis sperm assessed as reduction in sperm beat cross frequency at 10^-12 to 10^-4 M after 1 hr by SYTO staining based microscopic method
[8] = molecular target: Sodium/potassium-transporting ATPase subunit alpha-4 (Rattus norvegicus) (UniProt Q64541); test: Inhibition of Na+/K+-ATPase alpha4 in Long Evans rat cauda epididymis sperm assessed as reduction in sperm average path linearity at 10^-12 to 10^-4 M after 1 hr by SYTO staining based microscopic method
[9] = molecular target: Sodium/potassium-transporting ATPase subunit alpha-4 (Rattus norvegicus) (UniProt Q64541); test: Inhibition of Na+/K+-ATPase alpha4 in Long Evans rat cauda epididymis sperm assessed as reduction in sperm curvilinear velocity at 10^-12 to 10^-4 M after 1 hr by SYTO staining based microscopic method
[10] = molecular target: Sodium/potassium-transporting ATPase subunit alpha-4 (Rattus norvegicus) (UniProt Q64541); conditions: Long Evans, 10^-8 M; remark: listed apart in the source
[11] = molecular target: Sodium/potassium-transporting ATPase subunit alpha-4 (Rattus norvegicus) (UniProt Q64541); test: Inhibition of Na+/K+-ATPase alpha4 in Long Evans rat cauda epididymis sperm assessed as reduction in sperm average path velocity at 10^-12 to 10^-4 M after 1 hr by SYTO staining based microscopic method

Measured: inhibition

C[C@]12C[C@@H](O)[C@H]3[C@@H](CC[C@]4(O)C[C@@H](O)C[C@@H](O)[C@]34CO)[C@@]1(O)CC[C@@H]2c1cn(Cc2ccccc2)nn1
70%: [5]
active: [1] Tde | [2] | [3] | [4] | [6] | [7] | [8] | [9] | [10] | [11]
